Measurements reported in publication PMC12184805 (Journal of medicinal chemistry, 2025).

The chains behind the UniProt entries cited, without tags or fusion partners. Residues count along the entry.
UniProt P00743, 234-492 limits assumed: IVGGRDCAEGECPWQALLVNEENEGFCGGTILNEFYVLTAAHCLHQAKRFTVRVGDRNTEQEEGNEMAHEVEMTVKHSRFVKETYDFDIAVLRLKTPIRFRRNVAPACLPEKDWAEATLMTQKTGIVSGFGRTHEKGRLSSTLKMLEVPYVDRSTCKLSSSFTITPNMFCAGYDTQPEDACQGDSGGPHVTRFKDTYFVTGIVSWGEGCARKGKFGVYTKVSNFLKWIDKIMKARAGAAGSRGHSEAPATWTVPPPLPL

Target: FXa (Bos taurus, UniProt P00743)
Assay: Factor Xa chromogenic substrate assay
Format: biochemical
Details: anticoagulant activity against FXa

Question: With “1,2′,2‴,3,6‴-Penta-N-sulfo-2″,3′,3‴,4,4′,4‴-hexa-O-(2-naphthylmethyl)-5″,6′-(N-1,1′-biphenyl-4-yl)-paromomycindicarboxamide [Ligand L15]” as the substance, how does the IC50 read?
Answer: > 500 µM
